From PubChem BioAssay (NCATS)
Where “and” joins values, the source holds several entries; their conditions need not be identical. Identical values can stand only once. Only a part is listed here, and it is no random draw. Records with an inconclusive call do not appear. Some structures have more than one record in an assay (separate samples or runs), and their calls can disagree. Calls of active or inactive are those of the source. Unless noted, calls follow the shape of the dose curve; as a rule, active = well fitted curve in the direction sought with a large enough effect; inconclusive = small, poorly fitted or top-dose-only effect, or another doubt; inactive = no such curve, though single readings can be large; an effect the other way counts as inactive or inconclusive.

Chains of the proteins cited; added tags and fusions are not shown.
UniProt P11712, whole entry: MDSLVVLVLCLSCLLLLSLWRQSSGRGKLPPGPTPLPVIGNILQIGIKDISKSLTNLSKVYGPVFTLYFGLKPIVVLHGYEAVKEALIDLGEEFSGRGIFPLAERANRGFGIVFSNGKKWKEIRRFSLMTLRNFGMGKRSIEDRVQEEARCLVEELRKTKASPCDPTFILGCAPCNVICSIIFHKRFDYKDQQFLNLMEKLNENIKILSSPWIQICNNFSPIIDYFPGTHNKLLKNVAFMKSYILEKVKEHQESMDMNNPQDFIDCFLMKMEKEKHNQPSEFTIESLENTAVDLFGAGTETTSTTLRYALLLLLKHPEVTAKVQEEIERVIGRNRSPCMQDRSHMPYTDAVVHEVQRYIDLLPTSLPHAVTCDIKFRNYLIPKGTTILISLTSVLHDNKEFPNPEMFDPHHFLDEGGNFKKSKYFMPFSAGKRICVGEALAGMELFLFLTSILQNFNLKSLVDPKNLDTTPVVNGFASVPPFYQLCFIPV
UniProt P07203, whole entry: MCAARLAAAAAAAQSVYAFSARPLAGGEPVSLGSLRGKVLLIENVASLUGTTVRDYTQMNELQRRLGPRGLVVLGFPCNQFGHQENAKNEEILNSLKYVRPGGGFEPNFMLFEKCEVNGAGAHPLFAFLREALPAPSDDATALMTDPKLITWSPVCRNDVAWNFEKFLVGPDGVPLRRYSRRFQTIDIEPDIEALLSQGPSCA
UniProt P36969, whole entry: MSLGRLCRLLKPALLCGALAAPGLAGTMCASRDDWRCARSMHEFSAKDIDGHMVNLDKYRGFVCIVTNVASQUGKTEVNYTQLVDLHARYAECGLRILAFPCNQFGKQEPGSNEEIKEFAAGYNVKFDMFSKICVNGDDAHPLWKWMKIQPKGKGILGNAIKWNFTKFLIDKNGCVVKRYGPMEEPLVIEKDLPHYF

What was measured:
[1] = biological target: Cytochrome P450 2C9 (Homo sapiens) (UniProt P11712); experiment: Cytochrome P450 family 2 subfamily C member 9 (CYP2C9) small molecule antagonists: luciferase qHTS assay (AID 1645842; active = well fitted curve in the direction sought with a large enough effect in the repeat runs; an effect the other way counts as inactive or inconclusive; also: % is scaled to controls: 0 for no effect and ±100 for the full control effect; nearly all actives have a fitted effect of over 55% in size); details: P450-Glo CYP2C9 enzyme assay, luciferin luminescence; at 57.4 µM (top of the series)
In short: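 Luminescence, after 20 min with luciferin detection reagent, reflected CYP2C9 turnover during a 1 h NADPH-driven reaction at 37C. Enzyme-substrate mix contained 0.4% bovine serum albumin and was preincubated with compound 10 min at room temperature.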

[2] = Cytotoxicity counterscreen for inhibitors of SARS-CoV-2 cell entry (AID 1645845; calls by dose curve; also: % is scaled to controls: 0 for no effect and ±100 for the full control effect; nearly all actives have a fitted effect of over 50% in size); details: cell viability (SARS-CoV-2 entry assay cells); at 57.1 µM (top of the series)
In short: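 Expi293F/hACE2 cells seeded overnight; cpd pin-transferred in DMSO, 1 h preincubation, + media, 48 h 37 C 5% CO2; ATPLite 1step luminescence; normalized to cells and no cells.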

[3] = Primary qHTS for inhibitors of nuclear receptor binding SET domain protein 2 (NSD2) in an RCH-ACV wild type WT cells (2C) (AID 1645877); also: nearly all actives have a fitted effect of over 70% in size; also: potency is read from the fitted curve at half-maximal effect
[4] = biological target: Glutathione peroxidase 1 (Homo sapiens) (UniProt P07203); experiment: Primary qHTS Assay for Inhibitors of Recombinant Selenoprotein Glutathione Peroxidase 1 (GPX1) (AID 1845191); details: recombinant GPX1, GR-coupled NADPH fluorescence, 15 min; activity, negative = inhibition: at 48.8 µM (top of the series); also: nearly all actives have a fitted effect of over 65% in size; as to activity, negative = inhibition: % is scaled to controls: 0 for no effect and ±100 for the full control effect
In short: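 Recombinant GPX1 (10 nM final) was preincubated with compound for 30 min at room temperature, then reacted with 1 mM GSH, 0.5 mM CHP, 0.5 mM NADPH and 100 nM glutathione reductase; NADPH fluorescence (340/450 nm) was read at 0 and 15 min.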

[5] = biological target: Phospholipid hydroperoxide glutathione peroxidase GPX4 (Homo sapiens) (UniProt P36969); experiment: Primary qHTS Assay for Inhibitors of Recombinant Selenoprotein Glutathione Peroxidase 4 (GPX4) (AID 1845192); details: recombinant GPX4, GR-coupled NADPH fluorescence, 15 min; activity change, negative = inhibition: at 50 µM (top of the series); also: nearly all actives have a fitted effect of over 65% in size; as to activity change, negative = inhibition: % is scaled to controls: 0 for no effect and ±100 for the full control effect
In short: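 GR-coupled readout: 100 nM GR, 1 mM GSH, 0.5 mM NADPH; NADPH fluorescence (ex 340/em 450 nm) read at t=0 and after 15 min RT. GPX4 200 nM, preincubated 30 min with compound; substrate 0.5 mM CHP.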

[6] = Quantitative High-Throughput drug screen in 47 multiple myeloma cell lines against the NCATS MIPE library collection: AMO1_DSMZ cell viability assay (AID 1918927; also: nearly all actives have a fitted effect of over 30% in size); details: AMO1 myeloma cells viability, CellTiter-Glo ATP luminescence, 48 h; at 45.8 µM (top of the series)
In short: (§1)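 Relative luminescence from CellTiter-Glo served as the viability signal, referenced to DMSO-treated (100%) and cell-free medium (0%) controls. Treatment lasted 48 hours at 37C with 500 cells per well.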

[7] = Quantitative High-Throughput drug screen in 47 multiple myeloma cell lines against the NCATS MIPE library collection: ARP1_JJKsccF8 cell viability assay (AID 1918928; also: potency is read from the fitted curve at half-maximal effect; nearly all actives have a fitted effect of over 40% in size); details: ARP1 myeloma cells viability, CellTiter-Glo ATP, 48 h
In short: (§2)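 Luminescence from CellTiter-Glo, taken after 5 min at room temperature, reports cellular ATP as viability. Cells (500 per well) had been treated 48 h at 37 °C with MIPE 4.0 compounds, scaled between DMSO and medium-only controls.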

[8] = Quantitative High-Throughput drug screen in 47 multiple myeloma cell lines against the NCATS MIPE library collection: ARD_JJKsccE7 cell viability assay (AID 1918929); details: ARD myeloma cell line viability, CellTiter-Glo, 48 h; at 45.8 µM (top of the series)
In short: as §1

[9] = Quantitative High-Throughput drug screen in 47 multiple myeloma cell lines against the NCATS MIPE library collection: Karpas620_DSMZ cell viability assay (AID 1918959); details: Karpas620 myeloma viability, CellTiter-Glo ATP luminescence, 48 h; at 45.8 µM (top of the series); also: nearly all actives have a fitted effect of over 30% in size
In short: (§3)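 Viability readout: CellTiter-Glo luminescence following 5 min room-temperature incubation with reagent. Prior exposure: 48 h, 37C, humidified 5% CO2, 500 cells per well.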

[10] = Quantitative High-Throughput drug screen in 47 multiple myeloma cell lines against the NCATS MIPE library collection: KMM1_JCRB cell viability assay (AID 1918960); details: KMM1 myeloma viability, CellTiter-Glo ATP luminescence, 48 h; at 45.8 µM (top of the series); also: nearly all actives have a fitted effect of over 30% in size
In short: as §2

[11] = Quantitative High-Throughput drug screen in 47 multiple myeloma cell lines against the NCATS MIPE library collection: Karpas417_ECACC cell viability assay (AID 1918961); details: Karpas417 myeloma viability, CellTiter-Glo ATP luminescence, 48 h; at 45.8 µM (top of the series)
In short: (§4)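 Approved and investigational drugs from MIPE 4.0 were added by pin tool to 500 cells per well. After 48 hours at 37C, ATP-based CellTiter-Glo luminescence indicated remaining viability.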

[12] = Quantitative High-Throughput drug screen in 47 multiple myeloma cell lines against the NCATS MIPE library collection: JIM3_ECACC cell viability assay (AID 1918963; also: potency is read from the fitted curve at half-maximal effect; nearly all actives have a fitted effect of over 35% in size); details: JIM3 myeloma viability, CellTiter-Glo ATP, 48 h
In short: as §3

[13] = Quantitative High-Throughput drug screen in 47 multiple myeloma cell lines against the NCATS MIPE library collection: JIM1_ECACC cell viability assay (AID 1918964); details: JIM1 myeloma viability, CellTiter-Glo ATP luminescence, 48 h; at 45.8 µM (top of the series)
In short: as §1

[14] = Quantitative High-Throughput drug screen in 47 multiple myeloma cell lines against the NCATS MIPE library collection: INA6_PLB cell viability assay (AID 1918965; also: potency is read from the fitted curve at half-maximal effect; nearly all actives have a fitted effect of over 55% in size); details: INA6 myeloma viability, CellTiter-Glo ATP luminescence, 48 h
In short: as §4

[15] = Quantitative High-Throughput drug screen in 47 multiple myeloma cell lines against the NCATS MIPE library collection: JJN3_DSMZ cell viability assay (AID 1918966; also: potency is read from the fitted curve at half-maximal effect; nearly all actives have a fitted effect of over 50% in size); details: JJN3 myeloma cells viability, CellTiter-Glo ATP, 48 h
In short: as §1

[16] = Quantitative High-Throughput drug screen in 47 multiple myeloma cell lines against the NCATS MIPE library collection: H1112_PLB cell viability assay (AID 1918967; also: potency is read from the fitted curve at half-maximal effect; nearly all actives have a fitted effect of over 30% in size); details: H1112 myeloma cells viability, ATP luminescence, 48 h
In short: as §1

[17] = Quantitative High-Throughput drug screen in 47 multiple myeloma cell lines against the NCATS MIPE library collection: KMS27_JCRB cell viability assay (AID 1918970); details: KMS27 myeloma cells, CellTiter-Glo ATP viability, 48 h; at 45.8 µM (top of the series); also: nearly all actives have a fitted effect of over 30% in size
In short: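 Each line is seeded at 500 cells per well and treated with library compounds for 48 hours under 37 °C, 5% CO2. CellTiter-Glo is then added for 5 min at room temperature before median relative luminescence is recorded.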

[18] = Quantitative High-Throughput drug screen in 47 multiple myeloma cell lines against the NCATS MIPE library collection: KMS12PE_JCRB cell viability assay (AID 1918972); details: KMS12PE myeloma viability, CellTiter-Glo ATP, 48 h; at 45.8 µM (top of the series); also: nearly all actives have a fitted effect of over 30% in size
In short: as §4

[19] = Quantitative High-Throughput drug screen in 47 multiple myeloma cell lines against the NCATS MIPE library collection: KMS26_JCRB cell viability assay (AID 1918975); details: KMS26 myeloma cells viability, CellTiter-Glo ATP, 48 h; also: potency is read from the fitted curve at half-maximal effect; nearly all actives have a fitted effect of over 45% in size
In short: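 Myeloma cell lines, 500 cells per well, exposed to MIPE 4.0 library compounds for 48 h at 37C, 5% CO2. Viability from ATP by CellTiter-Glo luminescence; normalised to DMSO (100%) and media-only (0%) wells.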

[20] = Primary qHTS for inhibitors of nuclear receptor binding SET domain protein 2 (NSD2) in an isogenic RCH-ACV NSD2 p.E1099K mutant (9B) (AID 1645876); details: RCH-ACV (leukaemia line) NSD2 E1099K (9B) viability, CellTiter-Glo, 72 h; at 91.9 µM (top of the series); also: % is scaled to controls: 0 for no effect and ±100 for the full control effect; nearly all actives have a fitted effect of over 70% in size

SMILES: CN(CCCl)CCCl
- activity change, negative = inhibition [1]: inactive: -2.97%
- activity change, negative = cytotoxicity [2]: inactive: 1.54% and inactive: -7.57%
- Potency [3]: inactive and active: 26.3 µM
- activity, negative = inhibition [4]: inactive: 0.455%
- outcome [4]: inactive
- activity change, negative = inhibition [5]: inactive: -2.75%
- outcome [5]: inactive
- viability, % of DMSO [6]: inactive: 126%
- Potency [7]: active: 26.4 µM
- viability [8]: inactive: 103%
- viability (% of DMSO) [9]: inactive: 101%
- viability (% of DMSO) [10]: inactive: 97.6%
- viability (% of DMSO) [11]: inactive: 104%
- Potency [12]: active: 20.9 µM
- viability (% of DMSO) [13]: inactive: 105%
- Potency [14]: active: 11.8 µM
- Potency [15]: active: 26.4 µM
- Potency [16]: active: 20.9 µM
- viability (% of DMSO) [17]: inactive: 90.2%
- viability [18]: inactive: 109%
- Potency [19]: active: 20.9 µM

SMILES: CCC(=O)N(c1ccccc1)C1(COC)CCN(CCn2nnn(CC)c2=O)CC1
- activity change, negative = viability loss [20]: inactive: -16.3%
- Potency [3]: inactive
